Data published in patent US4571399A, “7-(1-Methyl-5-p-methylbenzoylpyrrole-2-acetamidoethyl)-theophylline with anti-platelet aggregant and broncholytic activity” (Medosan Industrie Biochimiche Riunite S.p.A., priority 1983, dated 1986).
Entries after “also recorded” stand apart in the source; their conditions may differ. Read-outs that look alike come from different tables or passages of the source.

What was measured:
[1] = test system: platelet aggregation induced with ADP (platelet rich plasma); experiment: In vitro anti-platelet aggregant activity (Born's method, ADP-induced aggregation); format: cell-based, rat; conditions: for inhibition at 1 µg/mL / inhibition at 5 µg/mL / inhibition at 10 µg/mL: Rattus norvegicus, Platelet, 0.05 h, 3 min incubation; for inhibition at 1 µg/mL: dose 1 γ/ml; for inhibition at 5 µg/mL: dose 5 γ/ml; for inhibition at 10 µg/mL: dose 10 γ/ml
[2] = test system: guinea pig tracheal chains (histamine as bronchoconstrictor); experiment: Broncholytic activity in vitro on tracheal chains (Akasu's method), antagonism of histamine; format: cell-based; conditions: summary in words
Solubility = format: physicochemical; conditions: in dichloromethane, N,N'-dimethylformamide
[3] = Antinflammatory and analgesic effects (no method described); conditions: summary in words; no data shown
in vivo = conditions: mouse
mouse = conditions: i.p., literature value; cited from earlier work
[4] = ADP 7,08 μmol/l, read-out: Inhibition % of platelet aggregation
[5] = read-out: Inhibition % of platelet aggregation, ADP 7,08 μmol/l

Row | SMILES | inhibition at 1 µg/mL ([1]; ADP 2 μmol/l, read-out: Inhibition % of platelet aggregation) | inhibition at 1 µg/mL ([1]; ADP 5 μmol/l, read-out: Inhibition % of platelet aggregation) | inhibition at 1 µg/mL [1, 4] | inhibition at 5 µg/mL [1, 4] | inhibition at 10 µg/mL [1, 4] | anti-platelet aggregant activity ([1]; summary in words) | broncholytic activity [2] | Solubility (Solubility) | analgesic effect [3] | antinflammatory effect [3] | LD50 (in vivo; ip) | LD50 (in vivo; po) | inhibition at 1 µg/mL ([1]; read-out: Inhibition % of platelet aggregation, ADP 2 μmol/l) | inhibition at 1 µg/mL ([1]; read-out: Inhibition % of platelet aggregation, ADP 5 μmol/l) | inhibition at 1 µg/mL [1, 5] | inhibition at 5 µg/mL [1, 5] | inhibition at 10 µg/mL [1, 5] | DL50 (LD50) (mouse)
1 | Cc1ccc(C(=O)c2ccc(CC(=O)NCCn3cnc4c3c(=O)n(C)c(=O)n4C)n2C)cc1 [compound (1), 7-(1-methyl-5-p-methylbenzoylpyrrole-2-acetamidoethyl)theophylline] | 30% | 21% | 12% | 59% | 90% | pronounced therapeutically useful anti-platelet aggregant activity | good broncholytic action; also recorded: good broncholytic activity comparable to that of theophylline | soluble in dichloromethane, N,N'-dimethylformamide | low antinflammatory and analgesic effects | low antinflammatory and analgesic effects | 970 mg/kg | 1400 mg/kg |  |  |  |  |  | 
2 | CC(=O)Oc1ccccc1C(=O)O [Aspirin, reference compound] |  |  |  |  |  |  |  |  |  |  |  |  | 29% | 19% | 15% | 60% | 100% | 495 mg/kg
